Earlier results, collected in PMC8940841, “A metabolically stable PET tracer for imaging synaptic vesicle protein 2A: synthesis and preclinical characterization of [^18F]SDM-16” (European Journal of Nuclear Medicine and Molecular Imaging, 2021).

Chains of the proteins cited; added tags and fusions are not shown.
UniProt Q7L0J3, whole entry: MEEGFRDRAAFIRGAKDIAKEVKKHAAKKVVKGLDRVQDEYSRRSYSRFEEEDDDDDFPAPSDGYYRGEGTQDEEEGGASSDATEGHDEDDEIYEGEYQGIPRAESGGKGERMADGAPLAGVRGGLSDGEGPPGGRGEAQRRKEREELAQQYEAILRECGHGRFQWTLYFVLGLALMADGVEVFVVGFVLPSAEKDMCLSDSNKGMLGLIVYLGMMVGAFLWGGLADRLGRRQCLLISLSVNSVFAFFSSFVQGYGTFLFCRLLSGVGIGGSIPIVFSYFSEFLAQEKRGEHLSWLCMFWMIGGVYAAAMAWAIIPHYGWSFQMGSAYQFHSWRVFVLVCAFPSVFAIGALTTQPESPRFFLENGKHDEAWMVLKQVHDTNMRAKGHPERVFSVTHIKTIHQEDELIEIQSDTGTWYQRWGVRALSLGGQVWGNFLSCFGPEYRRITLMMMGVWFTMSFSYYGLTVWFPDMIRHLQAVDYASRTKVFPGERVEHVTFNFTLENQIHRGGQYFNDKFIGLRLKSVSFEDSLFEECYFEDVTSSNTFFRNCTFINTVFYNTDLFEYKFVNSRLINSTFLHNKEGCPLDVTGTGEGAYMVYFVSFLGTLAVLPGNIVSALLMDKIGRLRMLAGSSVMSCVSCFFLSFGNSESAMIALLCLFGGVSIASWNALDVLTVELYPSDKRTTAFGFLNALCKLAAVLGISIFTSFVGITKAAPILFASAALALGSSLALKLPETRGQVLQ

Molecular target: human SV2A (Homo sapiens, UniProt Q7L0J3)
Conditions: other SV2A ligands; cited from earlier work

Cc1cnccc1CN1C[C@@H](c2cccc(F)c2)CC1=O
Ki: 8.6 nM
